# Experimental data: PubChem BioAssay AID624170 (National Center for Advancing Translational Sciences (NCATS), 2012)
# By UniProt entry, the sequences of proteins in these tests, tags left out. Where a name states a change or a piece, a line headed by the entry shows the natural chain unless it says otherwise.
# UniProt O94925: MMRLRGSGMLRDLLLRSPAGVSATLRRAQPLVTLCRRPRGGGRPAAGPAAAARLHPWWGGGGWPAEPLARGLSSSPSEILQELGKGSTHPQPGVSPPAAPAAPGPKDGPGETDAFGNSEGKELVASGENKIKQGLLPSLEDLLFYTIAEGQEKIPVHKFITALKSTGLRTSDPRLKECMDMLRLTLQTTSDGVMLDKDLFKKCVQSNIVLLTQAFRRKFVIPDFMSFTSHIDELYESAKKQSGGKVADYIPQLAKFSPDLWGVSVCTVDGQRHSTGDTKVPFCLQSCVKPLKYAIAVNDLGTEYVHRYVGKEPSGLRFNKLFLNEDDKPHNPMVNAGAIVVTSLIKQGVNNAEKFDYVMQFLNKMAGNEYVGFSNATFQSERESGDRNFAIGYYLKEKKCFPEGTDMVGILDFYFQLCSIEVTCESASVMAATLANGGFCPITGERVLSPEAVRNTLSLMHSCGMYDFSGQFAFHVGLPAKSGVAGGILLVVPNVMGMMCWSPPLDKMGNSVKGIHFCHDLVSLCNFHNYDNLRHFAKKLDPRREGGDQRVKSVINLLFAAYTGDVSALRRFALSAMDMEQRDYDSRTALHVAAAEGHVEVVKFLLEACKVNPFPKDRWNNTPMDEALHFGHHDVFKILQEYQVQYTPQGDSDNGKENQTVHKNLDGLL
# Only a part is listed here, and it is no random draw. Inconclusive results are not listed. The source made the active and inactive calls. The call rests on the fitted dose curve; in most records, active means well fitted inhibition curve with a large enough effect; inconclusive means small, poorly fitted or top-dose-only effect, or another doubt; inactive means no such curve, though single readings can be large or run the other way.
# Target: Glutaminase kidney isoform, mitochondrial (Homo sapiens) (UniProt O94925)
# Assay: qHTS for Inhibitors of Glutaminase (GLS)
# Conditions: GLS enzymatic activity, qHTS titration; series mostly up to 45.5 µM; activity change, negative = inhibition: at the top concentration
# On the % scale 0 is the no-effect control and ±100 the full control effect.
SMILES,"activity change, negative = inhibition",Potency
CC(=O)N1C2C3N(C(C)=O)C1C1N(C(C)=O)C(C(N1C(C)=O)N3C(C)=O)N2C(C)=O,inactive: 4.88%,
O=[N+]([O-])c1cccc2n[nH]nc12,inactive: 3.06%,
O=[N+]([O-])c1cc([N+](=O)[O-])c(CCNc2ccccc2)c([N+](=O)[O-])c1,inactive: 36.6%,
CCc1nc2c(n1)c1c(non1O)c1c2no[n+]1[O-],inactive: -6.48%,
Cc1ccc(NP(=O)(Oc2ccccc2)Oc2ccccc2)nc1,inactive: 4.85%,
COc1ccc(C2=NCC(CBr)S2)cc1 (stereo not drawn),inactive: 6.29%,
CN(C)C(=O)OCCc1n(C)cc[n+]1C,inactive: 3.05%,
CC(C)c1nc(Nc2ccccc2)n(P(=O)(N(C)C)N(C)C)n1,inactive: -2.34%,
CC(C)=N/N=C(\N)N[N+](=O)[O-],inactive: -1.54%,
CC1CCN(C(=O)Oc2c(Cl)cc(Cl)c3cccnc23)CC1,inactive: 5.08%,
c1cc(-c2nn[nH]n2)ccc1-c1nn[nH]n1,inactive: -9.97%,
C[N+]1=C2C=CC=CC=C2SC12C([N+](=O)[O-])=CC([N+](=O)[O-])=C[C-]2[N+](=O)[O-] (stereo not drawn),inactive: -10.1%,
Nc1ccc([As](=O)(O)c2ccc(N)cc2)cc1,inactive: -5.4%,
CCN(/C(=N/P(=O)(N1CCOCC1)N1CCOCC1)N1CCOCC1)c1ccc(OC)cc1,inactive: 0%,
c1nnnn1CCn1cnnn1,inactive: 4.98%,
O=P(Nc1nccs1)(c1ccccc1)c1ccccc1,inactive: 49.4%,
CC(C)C(=O)NC(Sc1ccccc1)C(Cl)(Cl)Cl (stereo not drawn),inactive: -10.2%,
C[C@H]1OP(=O)(Oc2ccccc2)[C@H](O)[C@H](O)[C@H]1N=[N+]=[N-] (stereo partly drawn),inactive: -0.923%,
O=P(Nc1nc2ccccc2s1)(c1ccccc1)c1ccccc1,inactive: 5.97%,
CN(C(=O)Cc1ccccc1)[C@H]1CC[C@@]2(CCCO2)C[C@@H]1N1CCCC1,inactive: 7.23%,

SMILES,"activity change, negative = inhibition",Potency
Cc1cc([N+](=O)[O-])cc([N+](=O)[O-])c1O,inactive: 3.72% [at 99.4 µM],
COc1ccc(N)c([N+](=O)[O-])c1[N+](=O)[O-],inactive: -15.3%,
Nc1ccc(CCCCOc2ccccc2)cc1,inactive: 0.847%,
CN(C)C1(CNC(=O)c2ccc(Cl)c(S(N)(=O)=O)c2)CCCCC1,inactive: -3.84%,
O=P(Nc1ccccn1)(c1ccc(Br)cc1)c1ccc(Br)cc1,inactive: -0.77%,
C(Cc1nn[nH]n1)Cc1nn[nH]n1,inactive: 3.07%,
Nc1ccc([As](=O)(O)c2ccc([N+](=O)[O-])cc2)cc1,inactive: 0.346%,
O=C(OC1CN2CCC1CC2)c1cccc(Cl)c1 (stereo not drawn),inactive: 2.92%,
CC(=O)NC(SC(=S)N(C)C)C(Cl)(Cl)Cl (stereo not drawn),inactive: 0.0283%,
O=[N+]([O-])c1ncn(CCn2cnc([N+](=O)[O-])n2)n1,inactive: -11.9%,
O=[N+]([O-])c1ccc(O)c(/C=N/Nc2ccc([N+](=O)[O-])cc2[N+](=O)[O-])c1,inactive: -0.552%,
O=[As](O)(c1ccccc1)c1ccc(O)cc1,inactive: 0%,
O=P1(N(CCCl)CCCl)OCCC2CCCCN21 (stereo not drawn),inactive: 1.87%,
O=C(NC1CCS(=O)(=O)C1)NP(=S)(Oc1ccccc1)Oc1ccccc1 (stereo not drawn),inactive: 2.09%,
CCNC(=S)/N=C(\N)N[N+](=O)[O-],inactive: 8.71%,
Cc1ccc(NP(=O)(Oc2cccc(C)c2)Oc2cccc(C)c2)nc1,inactive: 9.69%,
c1ccc(-c2nn[nH]n2)c(-c2nn[nH]n2)c1,inactive: 3.86%,
O=c1c2cc([N+](=O)[O-])ccc2[nH]c2c([N+](=O)[O-])cc([N+](=O)[O-])cc12,inactive: 0.978%,
CN(C)C(=O)Oc1noc2ccccc12,inactive: 3.79%,
CC(NC(=O)COC(=O)C(O)(c1ccccc1)c1ccccc1)c1ccccc1 (stereo not drawn),inactive: -5.84%,

SMILES,"activity change, negative = inhibition",Potency
Cc1ccccc1OP(=O)(Nc1ccccn1)Oc1ccccc1C,inactive: -19.1%,
CC(=O)NC(SC(=S)N(CC(C)C)CC(C)C)C(Cl)(Cl)Cl (stereo not drawn),inactive: -0.916%,
Cc1ccc(OP(=O)(Nc2ccccn2)Oc2ccc(C)cc2)cc1,inactive: -11.8%,
COC(=O)c1cc2c(s1)N=C(c1ccccc1)N(C)P2(=O)N1CCOCC1 (stereo not drawn),inactive: 4.65%,
CCC(=O)N1C2C3N(C(=O)CC)C1C1N(C(=O)CC)C(C(N1C(=O)CC)N3C(=O)CC)N2C(=O)CC,inactive: 3.13%,
O=C(OC1CN2CCC1CC2)c1ccccc1 (stereo not drawn),,inactive
CCc1cc(O)c([N+](=O)[O-])c(C)c1[N+](=O)[O-],inactive: 1.19%,
CC(C)(C)C(=O)NC(Sc1ccccc1)C(Cl)(Cl)Cl (stereo not drawn),inactive: 2.02%,
CCOc1ccc(C2=NCC(CBr)S2)cc1 (stereo not drawn),inactive: 0.851%,
O=P1(Nc2nc3ccc(Cl)cc3s2)COc2ccccc2O1 (stereo not drawn),inactive: 1.86%,
CC(=O)Nc1ccc(Oc2c([N+](=O)[O-])cc([N+](=O)[O-])cc2[N+](=O)[O-])cc1,inactive: -1.75%,
CC(=O)Nc1ccc([As](=O)(O)O)c(O)c1,inactive: 30.7%,
COC(=O)C1(C)COP(=O)(NCc2ccccc2)OC1 (stereo not drawn),inactive: 0.114%,
CC(=O)c1ccc(N2CC2c2ccncc2)cc1 (stereo not drawn),inactive: -0.964%,
N#C/C(=C\c1ccc(N(CCBr)CCBr)cc1)C(N)=O,inactive: 0.491%,
C[C@H]1OP(=O)(Oc2ccccc2)C[C@@H]2O[C@@H]21 (stereo partly drawn),inactive: -7.11%,
C[C@@H]1C=CCP(=O)(Oc2ccccc2)O1 (stereo partly drawn),inactive: -4.4%,
Cc1ccccc1CN(C)C(=O)COC(=O)C(O)(c1ccccc1)c1ccccc1,inactive: 9.51%,
